The values that follow come from PubChem BioAssay AID652017 (The Scripps Research Institute Molecular Screening Center, 2013).

The list shows a part of the results, in another mix than the full data. Activity calls are given as the source filed them. No stated cut-off is given here; in the data, active means activation above about 7.8%; inactive means the rest.

This assay in a line: SMARCA2 (BRM) function activators, primary screen, cell-based, luminescence, high throughput (AID 652017).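 Further: 0% = vehicle wells and 100% = reference activator wells.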 As to conditions: MG213 cells, MMTV-luciferase reporter, dexamethasone, overnight; at 9.1 µM; active compounds read high. For orientation: Reporter assays use an easily measured gene product as a stand-in for the process of interest.
Take `CN(C(=O)Cc1ccc(Cl)c(Cl)c1)[C@H]1CC[C@@]2(CCCO2)C[C@@H]1N1CCCC1`: the activation is inactive: 3.72%.
`CCOP1(=S)c2c(C)nn(CCC#N)c2N=C(c2ccccc2F)N1C` (stereo not given): the activation is inactive: 0.01%.
Take `O=P(Nc1nccs1)(Oc1ccccc1)Oc1ccccc1`: the activation was inactive: 0.65%.
On to `O=C(O)COc1ccc([As](=O)(O)O)cc1[N+](=O)[O-]`, for which the activation was inactive: -0.88%.
Under `Nc1ccccc1[As](=O)(O)c1ccccc1` stands inactive: 3.07%.
`ClCCSc1nnc(-c2cccnc2)o1`: the activation was inactive: 1.85%.
With `COC(=O)C1(C)COP(=O)(N2CCCCCC2)OC1` (stereo not given), the activation was inactive: -0.58%.
As for `CC(C)c1ccc(OP(=O)(Nc2ccccn2)Oc2ccccc2F)cc1` (stereo not given), the activation is inactive: -1.28%.
Under `CC(C)NC(=O)NP(=O)(Oc1ccccc1)Oc1ccccc1` stands inactive: -2.25%.
For the molecule `CCN(CC)C(=S)SC(NC=O)C(Cl)(Cl)Cl` (stereo not given), the activation is inactive: 1.71%.
Under `O=C(OC1CN2CCC1CC2)c1cccc2[nH]cnc12` (stereo not given) stands inactive: 1.74%; under `C[As](=O)(O)c1cccc(C(=O)O)c1`, inactive: 4.62%.
Under `O=[As](O)(c1ccc(O)cc1)c1ccccc1O` stands inactive: 3.52%; under `O=[N+]([O-])c1ccc(-c2cc([N+](=O)[O-])c(O)c([N+](=O)[O-])c2)cc1`, inactive: 4.06%; under `COc1cc(C(=O)NCC2(N3CCOCC3)CCCCC2)ccc1OCC(C)C`, inactive: -0.89%.
On to `Cc1ccc(OP(=O)(Nc2ccc([N+](=O)[O-])cn2)Oc2ccc(C)cc2)cc1`, for which the activation is inactive: 0.27%.
As for `[N-]=[N+]=NC1CCCCC1NC(=O)c1cc([N+](=O)[O-])cc([N+](=O)[O-])c1` (stereo not given), the activation is inactive: -1.04%.
Regarding `Cc1ccc2nc3c(c(C)c2c1)CC(C(Cl)Cl)S3` (stereo not given), the activation is inactive: 0.69%.
The result for `O=[N+]([O-])c1cc(Oc2ccc([N+](=O)[O-])cc2C(F)(F)F)cc([N+](=O)[O-])c1` reads inactive: -2.58%; that for `COc1ccc(N/C(=N/P(=O)(N2CCOCC2)N2CCOCC2)N2CCOCC2)cc1`, inactive: -3.86%.
As to `Cc1c2c(nc3ccccc13)SC(C(Cl)Cl)C2` (stereo not given), the activation is inactive: 0.24%.
For the molecule `O=C(OC1CN2CCC1CC2)C12CC3CC(CC(C3)C1)C2` (stereo not given), the activation was inactive: 2.62%.
The result for `Cc1cc(=O)[nH]c(N[N+](=O)[O-])n1` reads inactive: 0.23%; that for `O=P1(N(CCCl)CCCl)Nc2ccccc2N1`, inactive: 2.63%.
Consider `O=P1(N(CCCl)CCCl)OCCCN1CCCl` (stereo not given), for which the activation was inactive: -0.93%.
The result for `COc1ccc2nc(NP(=O)(c3ccccc3)c3ccccc3)sc2c1` reads inactive: -2.29%; that for `COc1cc(I)ccc1[As](=O)(O)O`, inactive: 2.13%; that for `O=C(OC1CN2CCC1CC2)c1cccc([N+](=O)[O-])c1` (stereo not given), inactive: 0.81%.
Turning to `CCOC(=O)c1ccc(NC(=O)C(C)(CCl)SC)cc1` (stereo not given), the activation is inactive: 4.65%.
Consider `CCC(C)N(CC(C)C)C(=S)SC(NC(C)=O)C(Cl)(Cl)Cl` (stereo not given), for which the activation is inactive: -5.88%.
The result for `COP1(=S)c2c(C)nn(CCC#N)c2N=C(c2ccc(F)cc2)N1C` (stereo not given) reads inactive: -3.18%; that for `COC(=O)C1(C)COP(=O)(N2CCCC2)OC1` (stereo not given), inactive: -3.59%.
In the case of `O=C(O)C(=O)c1ccc(N(CCCl)CCCl)cc1`, the activation is inactive: -1.57%.
The result for `O=C(COc1ccccc1)OC1CN2CCC1CC2` (stereo not given) reads inactive: -0.43%; that for `O=C(Nc1ccncc1[N+](=O)[O-])c1ccc([N+](=O)[O-])cc1[N+](=O)[O-]`, inactive: -0.5%; that for `CCOC(=O)Nc1cccc([As](=O)(O)O)c1`, inactive: -2.77%.
In the case of `Cc1cc(SC(NC=O)C(Cl)(Cl)Cl)ncn1` (stereo not given), the activation is inactive: 0.18%.
As to `O=P(Nc1ccccn1)(c1cccc2ccccc12)c1cccc2ccccc12`, the activation is inactive: -3.02%.
Under `O=[N+]([O-])c1ccc(Nc2ccc(Oc3ccc([N+](=O)[O-])cc3[N+](=O)[O-])cc2)c([N+](=O)[O-])c1` stands inactive: -1.48%; under `O=C(O)C(O)c1ccc(N(CCCl)CCCl)cc1` (stereo not given), inactive: 0.34%.
Under `CCOC(=O)Nc1ccc([As](=O)(O)O)c(O)c1` stands inactive: 3.59%; under `CC1CCNP(=O)(N(CCCl)CCCl)O1` (stereo not given), inactive: -5.01%; under `COP(=O)(OC)N1CC1c1ccccc1` (stereo not given), inactive: -2.33%.
Take `CCCCOc1ccc(C(=O)NCC2(N3CCCCC3)CCCCC2)cc1OC`: the activation was inactive: 0.52%.
In the case of `Cc1cc(SC(NC(=O)c2ccccc2)C(Cl)(Cl)Cl)nc(C(C)C)n1` (stereo not given), the activation is inactive: -1.48%.
